Experimental data published in patent US12622948B2 (SUN PHARMACEUTICAL INDUSTRIES LIMITED, priority 2020, dated 2026).
Marks after values point to notes of the source that are not given here.

Tests used:
[1] = system: type 2 diabetic mouse (db/db) model; assay: Efficacy study in db/db mice at 3 and 20 nM/kg dose (blood glucose, body weight, food intake); format: in vivo
Description: The effect of compounds of present invention on blood glucose, food intake and body weight was studied on mice. This study was performed in type 2 diabetic mouse (db/db) model. […] Baseline blood glucose was measured from all the animals. All animals were administered with test items subcutaneously. […] Delta blood glucose (mM) was calculated. Body weight changes and cumulative food consumption was measured at 72 hr post treatment.

GIPR = biological target: T1, GIPR (Homo sapiens, UniProt P48546); assay: Cellular cAMP assay (cAMP Hunter eXpress GPCR Assay), GIPR-expressing cells; format: cell-based; settings: cAMP production, read-out: Half effective Concentration (EC50) GIPR
T1 sequence (P48546 22-466): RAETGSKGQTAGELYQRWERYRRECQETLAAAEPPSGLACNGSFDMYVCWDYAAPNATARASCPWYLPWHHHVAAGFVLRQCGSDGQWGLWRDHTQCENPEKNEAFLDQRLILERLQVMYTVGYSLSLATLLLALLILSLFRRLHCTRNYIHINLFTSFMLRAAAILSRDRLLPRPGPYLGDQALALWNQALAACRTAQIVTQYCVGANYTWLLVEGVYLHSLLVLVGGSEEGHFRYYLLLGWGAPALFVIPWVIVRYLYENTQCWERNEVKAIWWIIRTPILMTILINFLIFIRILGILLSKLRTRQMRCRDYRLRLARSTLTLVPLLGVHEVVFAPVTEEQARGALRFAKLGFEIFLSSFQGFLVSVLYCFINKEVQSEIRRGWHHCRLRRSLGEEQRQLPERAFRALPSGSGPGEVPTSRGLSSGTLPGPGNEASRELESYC
Excerpt: G protein coupled receptor (GPCR) activation following ligand binding initiates a series of second messenger cascades that results in a cellular response.

[2] = system: type 2 diabetic mouse (db/db) model; assay: Efficacy study in db/db mice at 10 nM/kg dose (blood glucose, body weight, food intake); format: in vivo; settings: Study 1, db/db mice, 10 nM/kg s.c.
Description: The effect of compounds of present invention on blood glucose, food intake and body weight was studied in mice. This study was performed in a type 2 diabetic mouse (db/db) model. […] Baseline blood glucose was measured from all the animals. All the animals were administered with test items subcutaneously. […] Delta blood glucose (mM) was calculated. […] The animals were divided into 7 treatment groups (n=6)—a diabetic control group, Compound 1, Compound 3, Compound 4, Compound 5, Compound 6 and Compound 7. Baseline blood glucose was measured from all the animals. All the animals were administered with test items subcutaneously. […] Delta blood glucose (mM) was calculated. […] Similarly, the efficacy of Compound 8 and 9 in db/db mice at 10 nM/kg dose were carried out in a separate study. The animals were divided into 3 treatment groups (n=5)—a diabetic control group, Compound 8 and Compound 9. Baseline blood glucose was measured from all the animals. All the animals were administered with test items subcutaneously. […] Delta blood glucose (mM) was calculated. […] Another separate efficacy study for Compound 10, 11 and 12 in db/db mice at 10 nM/kg dose were carried out. The animals were divided into 4 treatment groups (n=5)—a diabetic control group, Compound 10, Compound 11 and Compound 12. Baseline blood glucose was measured from all the animals. All the animals were administered with test items subcutaneously. […] Delta blood glucose (mM) was calculated.

Tirzepatide [reference compound] was tested, and the “Delta Blood Glucose (mM), Mean” value ([1]; 3 nM/kg s.c., 0 hr (baseline)) was 0.0 mM, the “Delta Blood Glucose (mM), Mean” value ([1]; 3 nM/kg s.c., 4 hr) was −4.4* mM and the “Delta Blood Glucose (mM), Mean” value ([1]; 3 nM/kg s.c., 24 hr) was -1.6 mM. The “Delta Blood Glucose (mM), Mean” value ([1]; 3 nM/kg s.c., 48 hr) was 0.7 mM, the “Delta Blood Glucose (mM), Mean” value ([1]; 3 nM/kg s.c., 72 hr) was 1.4 mM and the “Delta Blood Glucose (mM), Mean” value ([1]; 20 nM/kg s.c., 0 hr (baseline)) was 0.0 mM. For the same substance, the “Delta Blood Glucose (mM), Mean” value ([1]; 20 nM/kg s.c., 4 hr) was −8.2*** mM, the “Delta Blood Glucose (mM), Mean” value ([1]; 20 nM/kg s.c., 24 hr) was −11.1*** mM and the “Delta Blood Glucose (mM), Mean” value ([1]; 20 nM/kg s.c., 48 hr) was −7.6*** mM. For the same substance, the “Delta Blood Glucose (mM), Mean” value ([1]; 20 nM/kg s.c., 72 hr) was -1.3 mM, the EC50 (GIPR) was 1.9 nM and the “Delta Blood Glucose (mM), Mean” value ([2]; 0 hr (baseline)) was 0 mM. For the same substance, the “Delta Blood Glucose (mM), Mean” value ([2]; 4 hr) was −9.9*** mM, the “Delta Blood Glucose (mM), Mean” value ([2]; 8 hr) was −8.7*** mM and the “Delta Blood Glucose (mM), Mean” value ([2]; 12 hr) was −8.6*** mM. The “Delta Blood Glucose (mM), Mean” value ([2]; 24 hr) was −11.4*** mM, the “Delta Blood Glucose (mM), Mean” value ([2]; 48 hr) was −5.3*** mM and the “Delta Blood Glucose (mM), Mean” value ([2]; 72 hr) was −3.7*** mM. For the same substance, the “Delta Blood Glucose (mM), Mean” value ([2]; 96 hr) was 3.7 mM.
